Measurements from article PMC1919509.

Biological target: T1, Single-stranded DNA binding protein (SSB), over-expressed recombinant (E. coli), P0AGE0
T1 chain: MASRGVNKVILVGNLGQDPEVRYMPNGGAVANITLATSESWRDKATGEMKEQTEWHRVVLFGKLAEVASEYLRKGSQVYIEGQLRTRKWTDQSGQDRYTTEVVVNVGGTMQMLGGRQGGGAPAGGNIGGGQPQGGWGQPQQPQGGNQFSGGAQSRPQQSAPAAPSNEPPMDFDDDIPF
Assay: cross-linking
Details: remark: other sources report otherwise

- stoichiometry N: 4
B1: Single-stranded DNA binding protein (SSB), over-expressed recombinant, P0AGE0 1-178 (natural protein)
chain: MASRGVNKVILVGNLGQDPEVRYMPNGGAVANITLATSESWRDKATGEMKEQTEWHRVVLFGKLAEVASEYLRKGSQVYIEGQLRTRKWTDQSGQDRYTTEVVVNVGGTMQMLGGRQGGGAPAGGNIGGGQPQGGWGQPQQPQGGNQFSGGAQSRPQQSAPAAPSNEPPMDFDDDIPF
